pIC50: −log10 of the molar value.
Key:
Stromelysin-1 = Stromelysin-1 (Homo sapiens, UniProt P08254)
[1] = target: 72 kDa type IV collagenase (Homo sapiens, UniProt P08253)

Protein sequences, listed by entry. Tags and fused reporters are not part of them. Lines headed by an entry give the natural chain unless they say otherwise; changes in a name come on top.
UniProt P08254: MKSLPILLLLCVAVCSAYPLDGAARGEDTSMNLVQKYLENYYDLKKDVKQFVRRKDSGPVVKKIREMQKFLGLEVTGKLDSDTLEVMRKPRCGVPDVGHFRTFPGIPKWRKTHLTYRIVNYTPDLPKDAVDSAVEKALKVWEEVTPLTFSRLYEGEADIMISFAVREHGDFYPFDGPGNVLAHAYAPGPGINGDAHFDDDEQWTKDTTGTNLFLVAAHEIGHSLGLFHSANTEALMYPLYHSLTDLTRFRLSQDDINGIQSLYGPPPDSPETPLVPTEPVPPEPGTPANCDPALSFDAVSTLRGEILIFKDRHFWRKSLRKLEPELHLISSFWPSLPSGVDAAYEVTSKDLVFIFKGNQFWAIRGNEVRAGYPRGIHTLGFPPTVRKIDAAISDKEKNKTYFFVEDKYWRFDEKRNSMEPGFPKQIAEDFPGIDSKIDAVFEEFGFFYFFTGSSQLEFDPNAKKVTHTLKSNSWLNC
UniProt P08253: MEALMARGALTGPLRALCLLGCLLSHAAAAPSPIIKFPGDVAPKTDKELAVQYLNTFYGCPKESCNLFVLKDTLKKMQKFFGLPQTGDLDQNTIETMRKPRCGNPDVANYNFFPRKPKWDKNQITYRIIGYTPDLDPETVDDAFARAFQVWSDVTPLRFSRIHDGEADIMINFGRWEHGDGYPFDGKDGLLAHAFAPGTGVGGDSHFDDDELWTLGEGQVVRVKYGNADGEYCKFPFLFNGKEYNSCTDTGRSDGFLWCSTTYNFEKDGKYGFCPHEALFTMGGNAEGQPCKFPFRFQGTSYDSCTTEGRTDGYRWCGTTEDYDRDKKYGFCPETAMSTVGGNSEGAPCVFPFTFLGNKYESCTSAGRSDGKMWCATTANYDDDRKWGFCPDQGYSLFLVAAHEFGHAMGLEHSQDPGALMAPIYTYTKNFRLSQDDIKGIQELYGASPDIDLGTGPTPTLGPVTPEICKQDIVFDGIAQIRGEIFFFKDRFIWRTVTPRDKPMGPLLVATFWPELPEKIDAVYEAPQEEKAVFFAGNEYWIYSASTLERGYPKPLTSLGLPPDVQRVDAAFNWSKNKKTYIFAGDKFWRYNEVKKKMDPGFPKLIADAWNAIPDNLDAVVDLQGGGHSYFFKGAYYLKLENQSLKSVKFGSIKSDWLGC

| pIC50 (Stromelysin-1) | pIC50 [1] | SMILES |
| --- | --- | --- |
| 7.70 |  | O=C(NO)C1(S(=O)(=O)c2ccc(Oc3ccc(SC(F)(F)F)cc3)cc2)CCOCC1 |
|  | > 10.00 | CCOCCN1CCC(C(=O)NO)(S(=O)(=O)c2ccc(Oc3ccc(OC(F)(F)F)cc3)cc2)CC1 |

From ChEMBL document CHEMBL1800055, “Orally active MMP-1 sparing α-tetrahydropyranyl and α-piperidinyl sulfone matrix metalloproteinase (MMP) inhibitors with efficacy in cancer, arthritis, and cardiovascular disease” (J Med Chem, 2010)
